Source: ChEMBL document CHEMBL5579878, “Allosteric Activation of Protein Phosphatase 5 with Small Molecules” (J Med Chem, 2024)

Target: T1, Serine/threonine-protein phosphatase 5 (Homo sapiens) (UniProt P53041)
T1 sequence (whole entry): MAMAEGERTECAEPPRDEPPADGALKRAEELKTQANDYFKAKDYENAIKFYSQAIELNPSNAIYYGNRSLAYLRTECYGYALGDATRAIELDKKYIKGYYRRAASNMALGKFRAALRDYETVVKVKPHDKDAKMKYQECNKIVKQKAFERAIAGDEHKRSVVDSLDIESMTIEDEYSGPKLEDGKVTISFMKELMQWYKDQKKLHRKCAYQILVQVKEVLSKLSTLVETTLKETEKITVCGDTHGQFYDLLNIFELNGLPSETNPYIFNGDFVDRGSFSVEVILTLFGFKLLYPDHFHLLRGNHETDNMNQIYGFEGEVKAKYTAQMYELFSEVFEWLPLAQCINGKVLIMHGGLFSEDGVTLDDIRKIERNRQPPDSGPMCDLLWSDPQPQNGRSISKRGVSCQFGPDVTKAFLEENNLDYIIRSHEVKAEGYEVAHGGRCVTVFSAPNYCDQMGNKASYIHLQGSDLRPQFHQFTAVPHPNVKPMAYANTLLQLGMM
Test: Activation of His-tagged human PP5 extracted from Escherichia coli BL21 using pNPP as substrate assessed as fold increase in phosphatase activity at 50 uM incubated for 30 mins by spectrophotometric analysis
Conditions: filed as activator

Q: N=c1oc2cc(F)cc(F)c2cc1C(N)=S was tested. Which fold change (FC) did it give?
A: 2.9
